Reference: PubChem BioAssay (Tox21)
Values joined by “and” are separate entries in the source; they are usually repeats but may differ in a detail not shown here. Equal entries are not always repeated. This is a selection; strong and weak results do not stand in their true shares. Results filed as inconclusive are left out. A call without a number means that no potency is given here. Active and inactive are the calls of the source. Calls follow the shape of the dose curve; as a rule, active = well fitted activation curve with a large enough effect in the signal ratio in the repeat runs (not every such curve was filed as active); inconclusive = weak or mixed curves, or effect the other way; inactive = no such curve, though single readings can be large or run the other way; the % refers to the signal ratio.

Experiment: qHTS assay for small molecule agonists of the antioxidant response element (ARE) signaling pathway (AID 743202)
Conditions: HepG2 ARE-bla reporter, beta-lactamase FRET, 16 h; series mostly up to 73.3 µM
From the text: U.S. Tox21 Program National Center for Advancing Translational Sciences [NCATS] NIH Chemical Genomics Center [NCGC] U.S. Environmental Protection Agency [EPA] National Institutes of Environmental Health Sciences [NIEHS] National Toxicology Program [NTP] U.S. Food and Drug Administration [FDA] Tox21 Assay Overview: Oxidative stress has been implicated in the pathogenesis of a variety of diseases ranging from cancer to neurodegeneration. The antioxidant response element (ARE) signaling pathway plays an important role in the amelioration of oxidative stress. The CellSensor ARE-bla HepG2 cell line (Invitrogen) can be used for analyzing the Nrf2/antioxidant response signaling pathway. Nrf2 (NF-E2-related factor 2) and Nrf1 are transcription factors that bind to AREs and activate these genes. The CellSensor ARE-bla Hep G2 cell line contains a beta-lactamase reporter gene under control of the Antioxidant Response Element (ARE) stably integrated into HepG2 cells. The activation of the report gene under culture conditions can be detected by fluorescence intensity. This cell line has been used to screen the Tox21 10K compound library to identify agonists that induce oxidative stress.
Tox21 Assay Protocol Summary: The ARE-bla cells were dispensed at 2,000 cells/5 ul/well in 1536-well black wall/clear bottom plates using a Multidrop dispenser. After the assay plates were incubated at a 37 C/5% CO2 incubator for 5 hours, 23 nL of compounds dissolved in DMSO, positive controls or DMSO only was transferred to the assay plate by a pin tool. The plates were incubated at 37 C for 16 hours. After 1 uL of LiveBLAzer B/G FRET substrate was added using a Flying Reagent Dispenser, the plates were incubated at room temperature for 2 hours, and fluorescence intensity was measured by an Envision plate reader.
Potency is read from the fitted curve at half-maximal effect.

SMILES	Potency
O=P(Cl)(Oc1ccccc1)Oc1ccccc1	inactive
NC(=O)Nc1ccc([As](=O)(O)O)cc1	inactive
CN(C(=O)Cc1cccc2occc12)[C@H]1CC[C@@]2(CCCO2)C[C@@H]1N1CCCC1	inactive
Cc1cc([N+](=O)[O-])cc([N+](=O)[O-])c1O	active: 8.63 µM and active: 4.86 µM
O=[p+]1oc2ccccc2c2ccccc21 (centres undefined)	inactive
CN(C(=O)Cc1ccc(Cl)c(Cl)c1)[C@H]1CC[C@@]2(CCCO2)C[C@@H]1N1CCCC1	inactive
Cc1cc([N+](=O)[O-])c(O)c([N+](=O)[O-])c1	active: 9.79 µM
COC(=O)Cl	inactive
CC(C)CCCCCCCOP(OCCCCCCCC(C)C)Oc1ccccc1	inactive
CN(N=O)C(=N)N[N+](=O)[O-]	inactive
CN(C(=O)Cc1ccccc1)[C@H]1CC[C@@]2(CCCO2)C[C@@H]1N1CCCC1	inactive
CCOP(=S)(CC)Sc1ccccc1 (centres undefined)	inactive
O=P(Cl)(Cl)c1ccccc1	inactive
O=[P+](Oc1ccccc1)Oc1ccccc1	inactive
COP(=S)(Cl)OC	inactive
CCCCO[P+](=O)OCCCC	inactive
CCOC(=O)Cl	inactive
CCNC(C)Cc1ccc2c(c1)OCO2 (centres undefined)	inactive
CCCCC(CC)CO[P+](=O)OCC(CC)CCCC (centres undefined)	inactive
